The source of these data is US6271234A, “1,4-disubstituted piperazines” (Recordati S.A., Chemical and Pharmaceutical Company, priority 1997, dated 2001).

In this test the test system is rhythmic bladder voiding contractions. As to the kind of experiment: Effects on volume-induced rhythmic bladder voiding contractions in anaesthetized rats. Format: in vivo, Female Sprague Dawley rats. As to conditions: mean ± S.E.

On to `COc1ccccc1N1CCN(CCN(C(=O)C2CCCCC2)c2ccccn2)CC1` [Compound A, N-(2-pyridyl)-N,2-[4-(2-methoxyphenyl)-1-piperazinyl]ethylcyclohexanecarboxamide, reference compound], for which the “Bladder Quiescence (disappearance time of contractions)” value (“Bladder Quiescence” below) (3 μg/kg i.v.) is recorded as 2.99 ± 0.63 min; the “Bladder Quiescence” value (10 μg/kg i.v.) is reported as 8.31 ± 1.28 min; the “Bladder Quiescence” value (30 μg/kg i.v.) worked out at 9.52 ± 0.82 min; the “Bladder Quiescence” value (100 μg/kg i.v.) came out at 11.25 ± 1.09 min; the “Bladder Quiescence” value (1000 μg/kg i.v.) is reported as 6.30 ± 1.42 min; the “Bladder Quiescence” value (3000 μg/kg i.v.) amounted to 9.25 ± 2.77 min.
